Read-outs that look alike come from different tables or passages of the source.
Legend:
full-length human Cal1 [1] = target: T1, full-length human Cal1 (Homo sapiens (Human), UniProt P07384); test: Calpain inhibition FRET assay; assay type: biochemical; details: Table 3, 20 min incubation, FRET substrate
full-length human Cal1 [2] = target: T1, full-length human Cal1; test: Calpain inhibition FRET assay; assay type: biochemical; details: Table 2; approximate IC50; read-out: Cal I IC50
Procedure: Calpain activity was measured using full-length human Cal1 in the presence of a FRET substrate. IC50 values were approximated by co-incubation of varying concentrations of the appropriate inhibitor (10, 100, 500, 1000 nM) in the presence of the FRET substrate (DABCYL)TPLK-SPPSPR-(EDANS) (SEQ ID NO: 5) and activation buffer. Fluorescence was measured following a 20 min incubation and % inhibition calculated by normalizing to control experiments containing no inhibitor. A peptide inhibitor, Z-LLY-FMK (SEQ ID NO: 6), was used as a positive control. In the case of potent inhibitors, the concentration-response was extended to include 1, 10, 50, 100, 250, and 500 nM inhibitor.
The Calbiochem InnoZyme activity kit was used for measuring the inhibition effect inhibitors on human erythrocyte calpain 1 activity. A calpain FRET substrate, (DABCYL)-[…]-(EDANS) (SEQ ID NO: 9), was used to detect the activity of Cal1. 20 μM of the FRET substrate, 10 nM of native Cal1, and 20 μM TCEP (reducing agent) were added to the reaction mixture containing assay buffer (Tris [10 mM], NaCl [100 mM], pH 7.4). Cal1 was activated by the addition of 10 μM calcium. Cleavage of the scissile bond amide bond, K-S, releases the fluorophore (EDANS) from the internal quenching molecule (DABCYL), resulting in an increase in fluorescence measured at 320 nm excitation and 480 nm emission wave lengths for 30 min. […]

Sequences of proteins named here, by UniProt entry; tags and fusion partners are left off. A change or cut given only in a name is not applied to a line headed by its entry.
UniProt P07384: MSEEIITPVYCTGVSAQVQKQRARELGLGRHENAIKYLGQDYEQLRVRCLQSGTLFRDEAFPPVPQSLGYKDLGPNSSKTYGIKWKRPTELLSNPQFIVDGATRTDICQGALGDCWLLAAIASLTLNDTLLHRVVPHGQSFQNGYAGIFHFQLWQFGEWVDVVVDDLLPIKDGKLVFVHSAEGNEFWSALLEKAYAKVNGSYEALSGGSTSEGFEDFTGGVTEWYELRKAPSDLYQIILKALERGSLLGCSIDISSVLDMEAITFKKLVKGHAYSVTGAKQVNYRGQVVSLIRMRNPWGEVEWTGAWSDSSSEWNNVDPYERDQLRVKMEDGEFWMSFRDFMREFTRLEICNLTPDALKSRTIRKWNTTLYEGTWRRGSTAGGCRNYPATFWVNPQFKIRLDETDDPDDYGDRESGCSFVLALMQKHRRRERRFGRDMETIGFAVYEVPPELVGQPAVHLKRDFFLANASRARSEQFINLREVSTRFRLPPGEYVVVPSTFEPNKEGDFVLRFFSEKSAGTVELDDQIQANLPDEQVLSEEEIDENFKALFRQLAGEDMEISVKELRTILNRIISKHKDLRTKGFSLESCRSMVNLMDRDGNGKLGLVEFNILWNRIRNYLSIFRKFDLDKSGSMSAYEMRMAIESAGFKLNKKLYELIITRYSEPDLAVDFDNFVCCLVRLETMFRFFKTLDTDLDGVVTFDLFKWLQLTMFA

Work on `CC(C)C[C@H](NC(=O)[C@H]1O[C@@H]1C(=O)O)C(=O)Nc1nc(-c2ccc(F)cc2)cs1` [Compound 24a, (2S,3S)-3-((S)-1-(4-(4-fluorophenyl)thiazol-2-ylamino)-4-methyl-1-oxopentan-2-ylcarbamoyl)oxirane-2-carboxylic acid] yielded an IC50 (full-length human Cal1 [1]) of 0.05 µM and an IC50 (full-length human Cal1 [2]) of 0.03 µM.

— US9403843B2, “Cysteine protease inhibitors and uses thereof” (The Trustees of Columbia University in the City of New York, priority 2012, dated 2016)
